These results are taken from US20260167708A1.

Assay [1] addresses recombinant human TSLP (human) (UniProt Q969D9). In words: cell-based or functional assay.
The target of assay [2] is recombinant TSLP-His ligand (Homo sapiens (Human)) (UniProt Q969D9). Nature of the assay: Alpha bead receptor-ligand binding assay; inhibition of TSLP-His binding to biotinylated TSLPR, relative to Reference Standard.

Turning to “Tezepelumab CEX-UHPLC main peak fraction (MP) (antibody)”, in assay [1], the Cell-based Reporter Gene Bioassay % Relative Potency came to 104%.

“Basic Fraction B-1 of stressed tezepelumab material (40C, up to four weeks) (antibody)”: the % Relative Potency in assay [2] was 101%. For the same substance, the Cell-based Reporter Gene Bioassay % Relative Potency in assay [1] turned out to be 94%.

Regarding “Tezepelumab CEX-UHPLC basic peak fraction B-3 (antibody)”, the % Relative Potency in assay [2] is 95%. In addition, the Cell-based Reporter Gene Bioassay % Relative Potency in assay [1] was found to be 82%.

With “Basic Fraction B-2 of stressed tezepelumab material (40C, up to four weeks) (antibody)”, the % Relative Potency in assay [2] is 93%. The Cell-based Reporter Gene Bioassay % Relative Potency in assay [1] was found to be 86%.

For “Tezepelumab CEX-UHPLC acidic peak fraction A-1 (antibody)”, the % Relative Potency in assay [2] amounted to 95%. For the same substance, in assay [1], the Cell-based Reporter Gene Bioassay % Relative Potency was found to be 94%.

As for “Tezepelumab drug substance (DS) sample incubated 38 days (antibody)”, the Cell-based Reporter Gene Bioassay % Relative Potency in assay [1] stood at 90%.

For the substance “Tezepelumab CEX-UHPLC acidic peak fraction A-2 (antibody)”, the % Relative Potency in assay [2] was 106%. For the same substance, the Cell-based Reporter Gene Bioassay % Relative Potency in assay [1] was determined as 99%.

As for “Tezepelumab drug substance (DS) (antibody)”, in assay [1], the Cell-based Reporter Gene Bioassay % Relative Potency amounted to 100%.

For the substance “Tezepelumab CEX-UHPLC basic peak fraction B-1 (antibody)”, the % Relative Potency in assay [2] was 109%. Besides, the Cell-based Reporter Gene Bioassay % Relative Potency in assay [1] is 103%.

Take “Tezepelumab CEX-UHPLC basic peak fraction B-2 (antibody)”: the % Relative Potency in assay [2] is 106%. For the same substance, the Cell-based Reporter Gene Bioassay % Relative Potency in assay [1] came to 94%.
